# Source: publication PMC3173463, “Discovery of Dual-Action Membrane-Anchored Modulators of Incretin Receptors” (PLoS ONE, 2011)
# By UniProt entry, the sequences of proteins in these tests, tags left out. Residues count along the entry.
# UniProt P43220, 24-463: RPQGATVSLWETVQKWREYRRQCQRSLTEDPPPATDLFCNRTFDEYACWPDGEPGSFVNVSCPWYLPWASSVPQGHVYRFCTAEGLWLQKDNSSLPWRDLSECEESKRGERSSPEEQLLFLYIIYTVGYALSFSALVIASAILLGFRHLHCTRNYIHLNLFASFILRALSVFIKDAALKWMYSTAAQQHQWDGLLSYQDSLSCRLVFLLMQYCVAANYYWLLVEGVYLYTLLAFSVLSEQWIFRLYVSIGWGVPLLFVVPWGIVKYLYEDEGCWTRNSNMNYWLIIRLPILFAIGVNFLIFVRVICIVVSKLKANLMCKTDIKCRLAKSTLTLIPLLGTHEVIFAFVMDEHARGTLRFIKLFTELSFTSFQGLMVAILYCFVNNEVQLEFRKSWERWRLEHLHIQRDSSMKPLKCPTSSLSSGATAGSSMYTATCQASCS
# Legend:
# [1] = target: T1, GLP-1R (Homo sapiens, UniProt P43220); assay: CRE luciferase reporter gene assay, soluble ligands on GLP-1R expressing cells; assay type: cell-based; conditions: soluble peptides, 6 hours stimulation; Figure 3A
# T1 construct: expressed in transfected cells; host or cells: HEK293 cells, transient transfection, pcDNA1.1 plasmid
# [2] = target: T2, GIP-R (Homo sapiens, UniProt P48546); assay: Washout experiments, persistence of agonist-induced signaling (luciferase); assay type: cell-based; conditions: 15 minutes stimulation, three washes with serum-free medium, additional 4 hour incubation; Figure 7C-E
# T2 construct: expressed in transfected cells; host or cells: HEK293 cells, transient transfection, pcDNA1.1 plasmid
# T2 sequence (P48546 22-466): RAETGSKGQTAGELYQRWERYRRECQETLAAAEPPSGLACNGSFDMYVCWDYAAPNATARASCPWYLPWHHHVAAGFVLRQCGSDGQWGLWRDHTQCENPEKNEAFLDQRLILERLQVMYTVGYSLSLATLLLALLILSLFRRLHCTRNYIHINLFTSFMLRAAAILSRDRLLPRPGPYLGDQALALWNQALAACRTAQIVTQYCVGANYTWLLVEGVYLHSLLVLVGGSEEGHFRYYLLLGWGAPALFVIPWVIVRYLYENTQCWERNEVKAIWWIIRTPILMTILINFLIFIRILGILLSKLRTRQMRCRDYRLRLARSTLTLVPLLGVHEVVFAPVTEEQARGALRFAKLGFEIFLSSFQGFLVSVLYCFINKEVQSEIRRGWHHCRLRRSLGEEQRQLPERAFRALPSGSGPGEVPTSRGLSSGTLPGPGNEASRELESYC
substance,measurement,setting,value
glucose-dependent insulinotropic polypeptide [GIP],agonist activity of soluble peptide at the GLP-1R,[1],minimal if any activity
same,potency and efficacy at GIP-R following serial washes,[2],markedly decreased
